Test results from paper PMC10060303.

Legend:
[1] = test system: blood platelets; experiment: Light transmission aggregometry (LTA), platelet aggregation in platelet-rich plasma; details: PRP
[2] = test system: blood platelets; experiment: Impedance aggregometry (Multiplate), platelet aggregation in whole blood
[3] = test system: blood platelets; details: citrate-anticoagulated blood, ADP 6.5 μM; cited from earlier work
[4] = test system: blood platelets; experiment: Flow cytometry of platelet activation (CD62P-positive platelets); details: ADP 10 µM, n = 6

CCCCC[C@H](O)/C=C/[C@H]1[C@H](O)CC(=O)[C@@H]1CCCCCCC(=O)O
decrease of platelet aggregation induced by ADP ([1]; PGE1 0.1 µM, 1 min preincubation, ADP 5 µM): 70%

CNC[C@H](O)c1ccc(O)c(O)c1
increase of AUC compared to control ([2]; adrenaline 10 µM + ADP 2 µM vs ADP alone): 60%

Nc1ncnc2c1ncn2[C@@H]1O[C@H](COP(=O)(O)OP(=O)(O)O)[C@@H](O)[C@H]1O
mean platelet aggregation [3]: 68.6 U
fold lower mean platelet aggregation with 2 μM ADP than with 5 μM ADP [2]: over 1.3 fold
increase of platelet aggregation over the non-activated platelets ([2]; ADP 2 µM): four-fold increase
mean platelet aggregation (AUC) ([2]; ADP 5 µM, n = 12): 52.2 ± 6.4 U
platelet activation (CD62P-positive platelets) ([4]; PRP): 40.7 ± 10.1%
platelet activation (CD62P-positive platelets) ([4]; blood): 29.7 ± 11.9%
platelet activation (CD62P-positive platelets) ([4]; isolated platelets): 27.0 ± 16.9%
AUC, control sample ([1]; ADP 5 µM alone): 512.9 ± 237.7 U
Amax, control sample ([1]; ADP 5 µM alone): 63.0 ± 19.2%
platelet aggregation in response to increasing ADP concentrations ([1]; ADP 0.1‒20 µM, n = 5): 2 to 91%
EC50 ([1]; read-out: EC50 of ADP-induced platelet aggregation, ADP alone, 0.1‒20 µM): 1.5 µM
